# Antibody variant affinities, Ab-14 light chain, assay B

Values reported by Li et al. 2023, doi:10.1038/s41467-023-39022-2 (FLAb copy).

Antigen: PDVDLGDISGINAS, a 14-residue peptide of the SARS-CoV-2 spike HR2 region.

Parent: Ab-14, a human scFv built as VH, a (GGGGS)3 linker, VL. Only the CDRs of the light chain vary.
VH: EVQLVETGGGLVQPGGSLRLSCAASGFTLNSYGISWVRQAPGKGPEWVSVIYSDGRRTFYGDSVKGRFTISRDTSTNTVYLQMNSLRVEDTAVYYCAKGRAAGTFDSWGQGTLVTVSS
VL: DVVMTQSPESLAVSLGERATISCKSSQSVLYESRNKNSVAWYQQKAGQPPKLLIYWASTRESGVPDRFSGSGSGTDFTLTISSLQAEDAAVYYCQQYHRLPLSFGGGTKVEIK

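The parent was found by panning a naive human phage display library on the peptide. These sequences belong to a second round, designed from the earlier measurements on random variants of the parent. Their group label is 14L_En_HC (En: ensemble of fine-tuned language models; HC: hill climbing; a sequence that several methods proposed may carry one label only). AlphaSeq pools MATa yeast showing the antibodies with MATalpha yeast showing the peptide. The frequency of each diploid, read from paired DNA barcodes, reflects how well the two displayed proteins bind. A regression on co-assayed BCL2-family reference pairs converts the normalised counts of each replicate to an apparent Kd. Each pool was mated in six replicate cultures.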

Each variant is given by its three light chain CDRs, as the data file delimits them; those of the parent are KSSQSVLYESRNKNSVA, WASTRES, QQYHRLPLS.
The read-out is the apparent dissociation constant on a log10 scale (nM): the lower, the stronger.
A pair that was not seen in that replicate is written "nd"; this usually means weak binding, but a binder can also be missed.
As a blank, each scFv also met three strains without target: over all light chain designs, 4% of these pairings were detected, typically at 2.64 and seldom below 1.59. Also given: how often the same scFv was detected with the empty control strains.
Values of this round are not directly comparable with the first-round values of the same sequences.
The authors' rule: three or more of the six replicates give a measured affinity, fewer mean a poor binder.
The parent sequence was in this pool as ten entries: three were never detected, three once, and four in most replicates, with averages from 0.34 to 2.37.

With IISQLMLYESATHNSIA | QTSTREE | QQYHHLPLS the result was 1.08, 0.97, 1.33, 1.69, 1.24, 1.34 (controls 0 of 18).
With HISQSVGMTSRNKNSVA | ENSTRES | QQYDRLPLS the result was nd, 1.71, 1.40, 2.30, 2.20, 2.21 (controls 2 of 18).
With TISQSAQQESHNKNSVA | DLSVRGS | QQYDRLPLS the result was 0.18, 0.27, 0.22, 0.10, 0.13, 0.37 (controls 2 of 18).
With TISNSFMMENQFKNSVA | QATTRES | QCYDRLPLS the result was 1.80, 1.53, 2.27, 3.40, 1.82, 3.10 (controls 2 of 18).
With HISQSVGMTQRNKNSVA | ENSTRED | QQYDRLPLS the result was 2.03, 1.78, 1.12, 1.55, 2.25, 2.97 (controls 3 of 18).
With MIAGGLRGVGRNKNSVA | NAQTRES | QHYHRLPLS the result was 2.39, 2.43, 2.16, 2.02, 2.02, nd (controls 0 of 18).
With KISSLTLYESVEKNNIA | EMSTRPS | QSYHRLPLS the result was 1.73, 2.42, 1.39, 1.70, 1.76, 1.32 (controls 0 of 18).
With KLGDMVHTESKNKNSIA | DMRTRES | QQYYRLPLS the result was -0.02, 0.21, 0.12, 0.02, -0.10, 0.07 (controls 0 of 18).
With TISQSLYWESRNKNSVA | QTSTREE | QDYDRLPLS the result was 1.31, 1.21, 1.71, 1.78, 2.63, 2.07 (controls 1 of 18).
With TISTSANYESTNKNSVA | ELTTRGS | QQYERLPLS the result was 1.11, 0.98, 1.41, 1.10, 1.27, 1.26 (controls 0 of 18).
With TISQSALMTGLNRNSVA | QASERIE | QQYHRLPLS the result was 0.28, -0.02, -0.22, -0.26, -0.46, -0.04 (controls 2 of 18).
With HISMMVGTKGYHKNSVA | NAETRED | QQYHRLPLS the result was 0.15, 0.25, 0.13, 0.15, 0.28, 0.21 (controls 0 of 18).
With HILQNMTYESRNINSVA | HQSTRED | QQYHSLPLS the result was 1.35, 1.68, 1.30, 1.51, 1.58, 2.13 (controls 0 of 18).
With KLLQAVVGETYNKNNVA | HNSTRED | QEYARLPLS the result was nd, nd, nd, 3.15, nd, 2.33 (controls 3 of 18).
With KLSQSVLFWGHAINSVA | EMETREY | QQYDRLPLS the result was 1.15, 0.87, 0.86, 0.89, 0.96, 1.02 (controls 3 of 18).
With KLSMSVDYMSATHSSVA | QTSTREE | QQYHRLPLI the result was 1.26, 1.05, 0.79, 0.73, 1.38, 1.89 (controls 0 of 18).
With KFSQSVLYENRTKNSVA | NASTRES | QQYHRLPLS the result was 0.77, 0.54, 0.43, 0.36, 0.64, 0.93 (controls 0 of 18).
With KISYMGEMFSTNHSSIA | QASTREQ | QQYHRLPLS the result was 1.29, 1.15, 0.89, 0.67, 0.98, 1.35 (controls 1 of 18).
With KLSQATRMESRNKASVA | ENSTRES | QQYFRLPLA the result was 0.58, 0.27, 0.04, -0.04, 0.01, 0.29 (controls 0 of 18).
With KLGSMVLLEHGNTNSIA | QQSTREE | QQYDRLPLS the result was 0.13, -0.08, -0.04, -0.08, 0.04, 0.19 (controls 0 of 18).
With KLREVQHVESKQKNNVA | DNSTRES | QDYYRLPLS the result was nd, nd, 3.21, nd, nd, nd (controls 0 of 18).
With IISQVDDYESRNKNSIA | DQQTRGS | QQYDRLPLS the result was 0.74, 0.69, 0.56, 0.55, 0.73, 0.46 (controls 1 of 18).
With MLSDTVMQGLYSRNSVA | QESTRAE | QQYHHLPLS the result was 0.79, 0.49, 0.59, 0.11, 0.32, 0.40 (controls 1 of 18).
With HLGGLMTWEEKARNSVA | QQETRAE | QQYHRLPLS the result was 0.58, -0.35, -0.08, -0.23, -0.37, 0.05 (controls 1 of 18).
With KFGQMVLTGAYVSNSVA | QSNTREN | QQYHRLPLS the result was 0.61, 0.57, 0.73, 0.26, 0.26, 0.74 (controls 1 of 18).
With MISQSFLIGMKAKNSVA | QTSTRVS | QQYDRLPLM the result was 0.80, 0.58, 0.71, 0.68, 0.84, 1.01 (controls 3 of 18).
With MFSQGVMVGWLTRNSVA | NSSTREN | QQYHRLPLS the result was 0.65, 0.76, 0.51, 0.69, 0.78, 0.78 (controls 0 of 18).
With MFSQLTYTGSRTRNAVA | QASTREN | QQYHHLPLT the result was 0.50, 0.88, 0.39, 0.55, 0.99, 0.77 (controls 1 of 18).
With HISMMVGTKGYNKNSVA | NAESRED | QQYHRLPLS the result was 2.19, 1.77, 1.61, 2.14, 1.82, 1.69 (controls 2 of 18).
With TISTSTYWESRNKNSVA | QTSTREE | QDYDRLPLS the result was 0.80, 0.50, 0.29, 0.31, 0.29, 0.58 (controls 1 of 18).
With TLSHSTDLEIVHKNSIA | DLMTRES | QQYDRLPLS the result was 0.84, 0.24, 0.58, 0.86, 0.43, 0.71 (controls 1 of 18).
With KLSIMYQHTSRNKNNIA | ERSTRED | QQYHHLPLS the result was 0.99, -0.01, 0.39, 0.25, -0.12, -0.28 (controls 0 of 18).
With ILSQMLLTAGNKHNSVA | QANYRES | QQYHRLPLS the result was 1.27, 0.74, 0.78, 1.59, 0.86, 1.79 (controls 0 of 18).
With IVSQSVMGESRNLNSVA | QTSERNY | QQYDRLPLS the result was 0.54, 0.30, 0.48, 0.28, 0.61, 0.49 (controls 1 of 18).
With KLRISTGYESRNKDSIA | DNSTRGR | QQYHRLPLS the result was 1.11, 1.84, 1.54, 1.60, 1.66, 2.17 (controls 0 of 18).
With TISQSAQMESHNKNSVA | DLNLRGN | QQYDRLPLS the result was 0.89, 0.51, 0.89, 0.53, 0.47, 0.71 (controls 0 of 18).
With KISYQYRYEQLSKNNIA | EVVTRLK | QQYHRLPLS the result was nd, nd, nd, nd, nd, nd (controls 0 of 18).
With IISQVDAYLSRNKNSIA | DQSTRGS | QQYDRLPLS the result was 0.82, 0.48, 0.18, 0.54, 0.44, 0.55 (controls 0 of 18).
With TLSQSWGMESRHKNNVA | QESTREK | QQYFRLPIS the result was 1.14, 0.75, 2.62, 0.97, 2.44, 1.76 (controls 0 of 18).
With KISQNMGETQRNKNSVA | EVSTVPY | QQYWRLPLS the result was 1.32, 1.69, 2.84, 0.67, 1.98, 1.97 (controls 1 of 18).
With HLSQSTDLESVHKNSIA | DLMTRES | QQYHRLPLS the result was 0.63, 0.62, 0.53, 0.59, 0.65, 0.71 (controls 0 of 18).
With KIMQSLNYESFSKNSVA | GQETRER | QSYHRLPLS the result was 0.91, 1.24, 0.89, 1.50, 1.01, 1.01 (controls 1 of 18).
With MISYLTMYGSRNKNSVA | DLSTRGS | QQYHRLPLS the result was nd, 1.18, 1.59, 1.88, 2.02, 1.89 (controls 0 of 18).

Excerpt, the final 2 entries:

With KIMQSLNYESFSKNSVA | GQETRER | QSYHRLPLS the result was 0.91, 1.24, 0.89, 1.50, 1.01, 1.01 (controls 1 of 18).
With MISYLTMYGSRNKNSVA | DLSTRGS | QQYHRLPLS the result was nd, 1.18, 1.59, 1.88, 2.02, 1.89 (controls 0 of 18).